One test concerns the target human α-thrombin (Homo sapiens, UniProt P00734). The experiment in a line: Determination of Ki for thrombin inhibition (chromogenic or fluorogenic substrate, Dixon).
The next test has as its target trypsin (Bos taurus, UniProt P00760). The experiment in a line: Ki values for trypsin, determined analogously. As to conditions: read-out: Ki Trypsin; Table 2, formula (III) compounds.

Chains of the proteins cited; added tags and fusions are not shown. Residues count along the entry.
UniProt P00760, 24-246 limits assumed: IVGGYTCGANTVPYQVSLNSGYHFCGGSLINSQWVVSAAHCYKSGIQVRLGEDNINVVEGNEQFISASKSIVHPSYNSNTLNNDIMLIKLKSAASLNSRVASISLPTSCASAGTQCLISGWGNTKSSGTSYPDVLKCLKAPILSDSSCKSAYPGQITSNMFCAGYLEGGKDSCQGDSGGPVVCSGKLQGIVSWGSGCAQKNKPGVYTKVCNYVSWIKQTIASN

As to `C[C@@H](O)[C@H](NS(=O)(=O)c1ccc2ccccc2c1)C(=O)N1CCC[C@H]1C(=O)NCc1ccc(C(=N)N)cc1`, the “Ki Trypsin/Ki Thrombin” value on human α-thrombin (Table 2, selectivity quotient) is 10.4. Also, the Ki (as a rule, the dissociation constant of the complex between target and ligand, obtained from inhibition or displacement) at human α-thrombin (read-out: Ki Thrombin, Table 2, formula (III) compounds) worked out at 5.24 nM; on trypsin, 54.5 nM.

The record behind these values is patent US7407982B2, “Oligo or polyalkylene glycol-coupled thrombin inhibitors” (HaemoSys GmbH, priority 2001, dated 2008).
